Marks after values point to notes of the source that are not given here.
Assays:
[1] = target: T1, human plasma butyrylcholinesterase (Homo sapiens, UniProt P06276); experiment: BuChE inhibition, modified Ellman's method; format: biochemical
T1 construct: The solution of plasma 200-fold diluted with 0.9% NaCl; from tissue; host or cells: citrated plasma from blood of healthy human donors

Chains of the proteins cited; added tags and fusions are not shown. Residues count along the entry.
UniProt P06276, 29-602: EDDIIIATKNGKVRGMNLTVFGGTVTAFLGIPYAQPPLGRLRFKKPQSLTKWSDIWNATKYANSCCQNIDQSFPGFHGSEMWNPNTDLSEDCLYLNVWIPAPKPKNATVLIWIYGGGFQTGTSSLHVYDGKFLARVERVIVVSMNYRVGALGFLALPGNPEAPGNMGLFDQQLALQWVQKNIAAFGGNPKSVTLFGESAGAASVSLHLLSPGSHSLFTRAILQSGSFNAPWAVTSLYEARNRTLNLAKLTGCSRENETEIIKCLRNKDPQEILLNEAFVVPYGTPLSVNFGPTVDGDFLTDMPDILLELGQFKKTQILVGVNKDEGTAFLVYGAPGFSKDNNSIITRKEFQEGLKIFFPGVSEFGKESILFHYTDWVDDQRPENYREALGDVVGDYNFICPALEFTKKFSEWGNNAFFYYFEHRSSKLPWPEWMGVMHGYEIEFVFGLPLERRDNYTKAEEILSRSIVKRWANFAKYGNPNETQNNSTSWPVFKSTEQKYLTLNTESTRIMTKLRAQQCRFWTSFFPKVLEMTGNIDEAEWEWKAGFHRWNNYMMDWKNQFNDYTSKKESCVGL
UniProt P22303, 32-617 isoform P22303-2 limits assumed: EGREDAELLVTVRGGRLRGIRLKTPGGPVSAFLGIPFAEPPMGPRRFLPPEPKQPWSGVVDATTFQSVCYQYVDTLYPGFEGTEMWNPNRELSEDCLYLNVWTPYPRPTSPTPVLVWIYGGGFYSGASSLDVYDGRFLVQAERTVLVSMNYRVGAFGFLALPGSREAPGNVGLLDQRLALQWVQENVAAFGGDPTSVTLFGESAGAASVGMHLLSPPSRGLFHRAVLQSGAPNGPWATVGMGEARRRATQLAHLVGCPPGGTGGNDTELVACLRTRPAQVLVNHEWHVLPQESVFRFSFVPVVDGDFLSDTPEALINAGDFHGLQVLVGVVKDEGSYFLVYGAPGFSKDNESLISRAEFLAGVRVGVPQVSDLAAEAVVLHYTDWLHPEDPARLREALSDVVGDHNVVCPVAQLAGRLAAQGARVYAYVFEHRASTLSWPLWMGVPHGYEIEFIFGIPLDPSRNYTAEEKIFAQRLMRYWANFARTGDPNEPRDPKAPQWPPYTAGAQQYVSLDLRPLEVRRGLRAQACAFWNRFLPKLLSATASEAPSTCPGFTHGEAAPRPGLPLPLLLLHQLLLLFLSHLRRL

BuChE = BuChE (Homo sapiens, UniProt P06276); experiment: Synergism of antipsychotics with donepezil/rivastigmine (binary mixtures), BuChE; conditions: ComboSyn;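 note: combination index derived by median-effect analysis of combined drug effects on the cholinesterase, with values below 1 meaning synergism, exactly 1 additivity and above 1 antagonism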
[2] = target: T2, human erythrocyte acetylcholinesterase (Homo sapiens, UniProt P22303); experiment: AChE inhibition, modified Ellman's method; format: biochemical; conditions: IC50 BuChE/IC50 AChE; theoretical values from extrapolated plots
T2 construct: solution of hemolyzed erythrocytes diluted 400-fold; from tissue; host or cells: hemolyzed erythrocytes from blood of healthy human donors

AChE = AChE (Homo sapiens, UniProt P22303); experiment: Synergism of antipsychotics with donepezil/rivastigmine (binary mixtures), AChE; conditions: ComboSyn;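 note: antipsychotic concentration kept fixed across all measurements, selected from estimated therapeutic plasma levels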
[3] = donepezil 100 μmol/L + antipsychotic at TPCmax
[4] = rivastigmine 0.5 μmol/L + antipsychotic at TPCmax
[5] = rivastigmine 0.75 μmol/L + antipsychotic at TPCmax
[6] = rivastigmine 1 μmol/L + antipsychotic at TPCmax
[7] = rivastigmine 2.5 μmol/L + antipsychotic at TPCmax
[8] = rivastigmine 5 μmol/L + antipsychotic at TPCmax

Structure (SMILES): CCN(C)C(=O)Oc1cccc([C@H](C)N(C)C)c1 [Rivastigmine, rivastigmine]
- IC50 ([1]; experimental data, mean ± SD, n = 6–9): 950 ± 90 nM

Structure (SMILES): OCCOCCN1CCN(C2=Nc3ccccc3Sc3ccccc32)CC1 [Quetiapine, quetiapine]
- CI (combination index), BuChE (BuChE; [3]): 0.95
- CI (combination index), BuChE (BuChE; [4]): 1.03
- CI (combination index), BuChE (BuChE; [5]): 1.04
- CI (combination index), BuChE (BuChE; [6]): 1.00
- CI (combination index), BuChE (BuChE; [7]): 1.01
- CI (combination index), BuChE (BuChE; [8]): 1.10

Structure (SMILES): CN(C)CCCN1c2ccccc2Sc2ccccc21 [Promazine, promazine]
- SI AChE [2]: 0.05 *
- SI BuChE ([1]; IC50 AChE/IC50 BuChE, theoretical values from extrapolated plots): 19 *
- CI (combination index), AChE (AChE; donepezil 0.005 μmol/L + antipsychotic at TPCmax, CI < 1 synergism, > 1 antagonism): 1.34
- CI (combination index), AChE (AChE; donepezil 0.01 μmol/L + antipsychotic at TPCmax): 1.04
- CI (combination index), AChE (AChE; donepezil 0.02 μmol/L + antipsychotic at TPCmax): 1.12
- CI (combination index), AChE (AChE; donepezil 0.05 μmol/L + antipsychotic at TPCmax): 0.97
- CI (combination index), AChE (AChE; donepezil 0.1 μmol/L + antipsychotic at TPCmax): 0.80
- CI (combination index), AChE (AChE; [8]): 0.52
- CI (combination index), AChE (AChE; rivastigmine 10 μmol/L + antipsychotic at TPCmax): 0.66
- CI (combination index), AChE (AChE; rivastigmine 15 μmol/L + antipsychotic at TPCmax): 0.62
- CI (combination index), AChE (AChE; rivastigmine 25 μmol/L + antipsychotic at TPCmax): 0.68
- CI (combination index), AChE (AChE; rivastigmine 40 μmol/L + antipsychotic at TPCmax): 0.66
- CI (combination index), AChE (AChE; rivastigmine 50 μmol/L + antipsychotic at TPCmax): 0.72
- CI (combination index), AChE (AChE; rivastigmine 75 μmol/L + antipsychotic at TPCmax): 0.72
- CI (combination index), AChE (AChE; rivastigmine 100 μmol/L + antipsychotic at TPCmax): 0.81
- CI (combination index), BuChE (BuChE; donepezil 2 μmol/L + antipsychotic at TPCmax): 0.61
- CI (combination index), BuChE (BuChE; donepezil 5 μmol/L + antipsychotic at TPCmax): 0.56
- CI (combination index), BuChE (BuChE; donepezil 10 μmol/L + antipsychotic at TPCmax): 0.56
- CI (combination index), BuChE (BuChE; donepezil 20 μmol/L + antipsychotic at TPCmax): 0.64
- CI (combination index), BuChE (BuChE; donepezil 50 μmol/L + antipsychotic at TPCmax): 0.78
- CI (combination index), BuChE (BuChE; [3]): 0.81
- CI (combination index), BuChE (BuChE; rivastigmine 0.05 μmol/L + antipsychotic at TPCmax): 0.66
- CI (combination index), BuChE (BuChE; rivastigmine 0.1 μmol/L + antipsychotic at TPCmax): 0.67
- CI (combination index), BuChE (BuChE; rivastigmine 0.25 μmol/L + antipsychotic at TPCmax): 0.85
- CI (combination index), BuChE (BuChE; [4]): 1.04
- CI (combination index), BuChE (BuChE; [5]): 1.14
- CI (combination index), BuChE (BuChE; [6]): 1.30
- CI (combination index), BuChE (BuChE; [7]): 1.78
- CI (combination index), BuChE (BuChE; [8]): 2.27
